Tested on: human bronchial epithelial cell air–liquid interface culture
Test: Transepithelial transport assay (Papp), HBEC air–liquid interface cultures on Transwells
Conditions: for reduction in Papp / transepithelial transport rate versus ceftazidime: HBEC ALI cultures; for Papp compared to ceftazidime: paired two-tailed t-test

Row | SMILES | reduction in Papp / transepithelial transport rate versus ceftazidime | Papp compared to ceftazidime (compound set 1) | Papp compared to ceftazidime (compound set 2) | other results
1 | CC(C)(O/N=C(\C(=O)N[C@@H]1C(=O)N2C(C(=O)[O-])=C(C[n+]3ccccc3)CS[C@H]12)c1csc(N)n1)C(=O)O [Ceftazidime pentahydrate, ceftazidime pentahydrate, reference compound] |  |  |  | Papp x10-6 (compound set 1, lung donor N715): 3.17 x10-6; Papp x10-6 (compound set 1, lung donor N716): 3.37 x10-6; Papp x10-6 (compound set 1, lung donor N720): 3.54 x10-6; Papp x10-6 (compound set 2, lung donor KC29): 1.86 x10-6; Papp x10-6 (compound set 2, lung donor L2): 2.13 x10-6; Papp x10-6 (compound set 2, lung donor L224): 3.63 x10-6
2 | CCCCNC(=O)C(C)(C)O/N=C(/C(=O)N[C@@H]1C(=O)N2C(C(=O)[O-])=C(C[n+]3ccccc3)CS[C@H]12)c1csc(N)n1 [Compound 1, n-butyl-ceftazidime] | 40–50% | significantly (p < 0.05) lower |  | 
3 | COCCOCCOCCOCCOCCOCCOCCOCCNC(=O)C(C)(C)O/N=C(/C(=O)N[C@@H]1C(=O)N2C(C(=O)[O-])=C(C[n+]3ccccc3)CS[C@H]12)c1csc(N)n1 [Compound 9] | 40–50% | significantly (p < 0.05) lower |  | 
4 | CC(C)(O/N=C(/C(=O)N[C@@H]1C(=O)N2C(C(=O)[O-])=C(C[n+]3ccccc3)CS[C@H]12)c1csc(N)n1)C(=O)NCCNc1ccnc(N)n1 [Compound 14] |  |  | trended lower | 
5 | CC(C)(O/N=C(/C(=O)N[C@@H]1C(=O)N2C(C(=O)[O-])=C(C[n+]3ccccc3)CS[C@H]12)c1csc(N)n1)C(=O)NCCOCCOCCOCCOCCOCCNc1ccnc(N)n1 [Compound 15, PEG5-pyrimidin-2-amine-ceftazidime] | 40–50% | significantly (p < 0.05) lower |  | 
6 | CC(C)(O/N=C(/C(=O)N[C@@H]1C(=O)N2C(C(=O)[O-])=C(C[n+]3ccccc3)CS[C@H]12)c1csc(N)n1)C(=O)NCCNC(=O)c1ccc(B(O)O)cc1 [Compound 18] |  |  | trended lower | 
